Chains of the proteins cited; added tags and fusions are not shown. Residues count along the entry.
UniProt P63085, whole entry: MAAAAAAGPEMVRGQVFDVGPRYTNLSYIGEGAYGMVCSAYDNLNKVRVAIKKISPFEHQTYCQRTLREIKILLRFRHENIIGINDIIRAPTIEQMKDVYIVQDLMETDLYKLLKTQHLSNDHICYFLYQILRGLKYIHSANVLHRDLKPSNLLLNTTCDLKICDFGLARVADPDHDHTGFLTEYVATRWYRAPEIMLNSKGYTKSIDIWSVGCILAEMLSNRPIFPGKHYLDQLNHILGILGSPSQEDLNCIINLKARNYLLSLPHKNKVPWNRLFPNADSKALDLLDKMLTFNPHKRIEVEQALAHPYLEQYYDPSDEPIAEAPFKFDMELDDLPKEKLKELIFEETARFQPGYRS
UniProt P63085, 2-358 limits assumed: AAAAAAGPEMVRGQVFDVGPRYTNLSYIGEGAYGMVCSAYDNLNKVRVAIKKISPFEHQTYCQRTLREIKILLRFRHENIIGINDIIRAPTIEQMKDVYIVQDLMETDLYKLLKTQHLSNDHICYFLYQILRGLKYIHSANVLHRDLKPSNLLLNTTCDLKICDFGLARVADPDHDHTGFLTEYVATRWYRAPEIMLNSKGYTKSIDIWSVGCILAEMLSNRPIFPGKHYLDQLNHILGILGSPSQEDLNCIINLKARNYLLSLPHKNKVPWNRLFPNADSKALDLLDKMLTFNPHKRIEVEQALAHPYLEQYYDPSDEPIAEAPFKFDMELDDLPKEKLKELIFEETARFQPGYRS

According to patent US9242981B2, “Fused pyrazole derivatives as novel ERK inhibitors” (Merck Sharp & Dohme Corp., priority 2010, dated 2016):

How the values were obtained:
Mouse ERK2 protein = Mouse ERK2 protein (Mus musculus (Mouse), UniProt P63085); assay: Coupled MEK1/ERK2 IMAP assay or Active ERK2 IMAP assay; format: biochemical; settings: read-out: ERK2 IC50 nM, Table 1, class symbols, 30 μM ATP
ERK protein = ERK protein (Mus musculus, UniProt P63085); assay: TdF (Temperature Dependence Fluorescence, thermal shift) assay for ERK; format: binding; settings: read-out: Kd TdF nM; Table 1, class symbols; 3 μM ERK protein
Description: The SAR (Structure Activity Relationship) for ERK ligands covered by this invention was interrogated using the TdF (Temperature Dependence Fluorescence) assay or best known as thermal shift assay. (M. W. Pantoliano, et al., “High-density miniaturized thermal shift assays as a general strategy for drug discovery,” J. Biomol. Screen 6 (2001) 429-440) The TdF assay was mainly conducted in the 96-well based CHROMO-4 real time fluorescence plate reader (BioRad). The Sypro Orange (Sigma-Aldrich), environmentally sensitive fluorescence dye, was used to monitor the protein folding-unfolding transition. […]
Compound of interest was first prepared in DMSO stock (typical concentration: 10 mM). […] The fluorescence signals were acquired with excitation and emission wavelengths centered at 490 and 560 nm respectively. […]
The derivation of TdF-based ligand binding affinity constant (Kd) followed closely those previously formulated by Brandts and Lin. […] In brief, the binding constant of the ligand at the Tm is expressed as below:
[formula] where T0 is the midpoint of unfolding for unliganded protein and Tm is the midpoint of unfolding in presence of ligand. […] Following algorithm derived by Winsor and coworker, the T0, ΔHu and ΔCpu can be determined separately from nonlinear regression fitting the protein alone melting curve: […]

## Cc1cc(-c2n[nH]c3c2CN(C(=O)NC2CC4CCC(C2)N4Cc2c(F)cccc2F)CC3)ccn1 (centres unmarked)
Mouse ERK2 protein
  IC50: 101 to 1000 nM
ERK protein
  Kd: 101 to 1000 nM
